{"source": "patent US10526311B2", "about": "(ASTEX THERAPEUTICS LIMITED, priority 2015, dated 2020)", "key": {"SJSA-1": {"system": "SJSA-1", "assay": "Protocol B: SJSA-1 CellTiter-Glo cell viability"}, "[1]": {"system": "SJSA-1 (MDM2 amplified, p53 wild-type osteosarcoma)", "assay": "Protocol A: SJSA-1 growth inhibition (SRB)", "details": "Homo sapiens, SJSA-1, 72 h"}, "[2]": {"details": "read-out: SJSA1 IC50 (μM) (Protocol B), SJSA-1, Protocol B (CellTiter-Glo), 72 hrs"}, "[3]": {"details": "read-out: SJSA-1 IC50 (μM) (Protocol A)"}, "[4]": {"details": "read-out: SJSA-1 IC50 (μM) (Protocol A), SJSA-1, Protocol A (SRB), 72 hrs"}}, "note": "Read-outs that look alike come from different tables or passages of the source."}
{"smiles": "CC(O)(c1cc(F)c2c(c1)C(=O)N(Cc1ncc(Cl)cn1)[C@@]2(OCC1(CO)CC1)c1ccc(Cl)cc1)[C@H]1CC[C@H](O)CC1", "note": "(single isomer, unassigned) [Example 402]", "values": [{"measurement": "IC50", "setting": "SJSA-1; [2]", "value": 0.21, "unit": "µM"}]}
{"smiles": "CCC(O)(c1cc(F)c2c(c1)C(=O)N(Cc1ncc(Cl)cc1O)[C@@]2(OCCO)c1ccc(Cl)cc1)c1cn(C)cn1", "note": "(single isomer, unassigned) [Example 443]", "values": [{"measurement": "IC50", "setting": "[1]; [3]", "value": 0.11, "unit": "µM"}]}
{"smiles": "CCC(O)(c1cc(F)c2c(c1)C(=O)N(Cc1ccc(C#N)cn1)[C@@]2(O[C@H]1CCOC1)c1ccc(Cl)cc1)C1(F)CCOCC1", "note": "(single isomer, unassigned) [Example 445]", "values": [{"measurement": "IC50", "setting": "SJSA-1; [2]", "value": 3.3, "unit": "µM"}]}
{"smiles": "CCC(O)(c1cc(F)c2c(c1)C(=O)N(Cc1ccc(C#N)cn1)[C@@]2(O[C@H]1CCOC1)c1ccc(Cl)cc1)C1(F)CCOCC1", "note": "(single isomer, unassigned) [Example 446]", "values": [{"measurement": "IC50", "setting": "[1]; [3]", "value": 0.018, "unit": "µM"}]}
{"smiles": "CCC(O)(c1cc(F)c2c(c1)C(=O)N(Cc1ncc(Cl)cn1)[C@@]2(OC)c1ccc(Cl)cc1)C1(F)CCN(C)CC1", "note": "(single isomer, unassigned) [Example 563]", "values": [{"measurement": "IC50", "setting": "[1]; [4]", "value": 0.025, "unit": "µM"}]}
{"smiles": "CCC(O)(c1cc(F)c2c(c1)C(=O)N(Cc1ncc(Cl)cn1)[C@@]2(OCC1(C#N)CC1)c1ccc(Cl)cc1)C1(F)CCN(C)CC1", "note": "(single isomer, unassigned) [Example 564]", "values": [{"measurement": "IC50", "setting": "[1]; [4]", "value": 0.018, "unit": "µM"}]}
{"smiles": "CCC(O)(c1cc(F)c2c(c1)C(=O)N(Cc1ncc(Cl)cn1)[C@@]2(OC[C@@H](C)O)c1ccc(Cl)cc1)C1(F)CCN(C)CC1", "note": "(single isomer, unassigned) [Example 572]", "values": [{"measurement": "IC50", "setting": "[1]; [4]", "value": 0.019, "unit": "µM"}]}
{"smiles": "CCC(O)(c1cc(F)c2c(c1)C(=O)N(Cc1ncc(C#N)cn1)[C@@]2(O[C@H]1CCOC1)c1ccc(Cl)cc1)c1cn(C)cn1", "note": "(stereo partly drawn) [Example 370, 2-{[(1R)-1-(4-chlorophenyl)-7-fluoro-5-[1-hydroxy-1-(1-methyl-1H-imidazol-4-yl)propyl]-3-oxo-1-[(3S)-oxolan-3-yloxy]-2,3-dihydro-1H-isoindol-2-yl]methyl}pyrimidine-5-carbonitrile]", "values": [{"measurement": "IC50", "setting": "SJSA-1; Homo sapiens, SJSA-1, 72 h, read-out: SJSA1 IC50 (μM) (Protocol B), SJSA-1, Protocol B (CellTiter-Glo), 72 hrs", "value": 3.5, "unit": "µM"}]}
